Experimental data as given in US20170280720A1, “ARGININE METHYLTRANSFERASE INHIBITORS AND USES THEREOF” (EPIZYME, INC., priority 2014, published 2017).

Protein sequences, listed by entry. Tags and fused reporters are not part of them. Chains listed by the source or under a name are the forms on record and can include a tag or linker. Residues count along the entry.
UniProt O14744, whole entry: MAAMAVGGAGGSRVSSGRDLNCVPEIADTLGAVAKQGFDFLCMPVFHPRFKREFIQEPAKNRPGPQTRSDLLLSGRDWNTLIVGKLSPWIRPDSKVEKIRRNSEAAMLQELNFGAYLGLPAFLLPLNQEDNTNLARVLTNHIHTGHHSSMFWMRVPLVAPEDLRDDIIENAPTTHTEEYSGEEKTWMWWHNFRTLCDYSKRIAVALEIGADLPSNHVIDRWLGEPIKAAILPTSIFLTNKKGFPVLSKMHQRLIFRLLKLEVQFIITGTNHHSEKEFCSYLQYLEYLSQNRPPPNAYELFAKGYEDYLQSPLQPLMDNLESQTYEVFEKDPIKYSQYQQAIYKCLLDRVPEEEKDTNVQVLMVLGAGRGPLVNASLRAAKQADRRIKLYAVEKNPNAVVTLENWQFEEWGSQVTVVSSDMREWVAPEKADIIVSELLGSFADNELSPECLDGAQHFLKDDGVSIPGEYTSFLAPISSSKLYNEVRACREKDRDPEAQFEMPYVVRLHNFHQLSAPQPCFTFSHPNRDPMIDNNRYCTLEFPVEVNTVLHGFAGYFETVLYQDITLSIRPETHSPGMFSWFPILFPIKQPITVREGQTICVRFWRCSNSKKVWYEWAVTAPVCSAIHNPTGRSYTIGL
UniProt Q86X55, 2-585 isoform 1 limits assumed: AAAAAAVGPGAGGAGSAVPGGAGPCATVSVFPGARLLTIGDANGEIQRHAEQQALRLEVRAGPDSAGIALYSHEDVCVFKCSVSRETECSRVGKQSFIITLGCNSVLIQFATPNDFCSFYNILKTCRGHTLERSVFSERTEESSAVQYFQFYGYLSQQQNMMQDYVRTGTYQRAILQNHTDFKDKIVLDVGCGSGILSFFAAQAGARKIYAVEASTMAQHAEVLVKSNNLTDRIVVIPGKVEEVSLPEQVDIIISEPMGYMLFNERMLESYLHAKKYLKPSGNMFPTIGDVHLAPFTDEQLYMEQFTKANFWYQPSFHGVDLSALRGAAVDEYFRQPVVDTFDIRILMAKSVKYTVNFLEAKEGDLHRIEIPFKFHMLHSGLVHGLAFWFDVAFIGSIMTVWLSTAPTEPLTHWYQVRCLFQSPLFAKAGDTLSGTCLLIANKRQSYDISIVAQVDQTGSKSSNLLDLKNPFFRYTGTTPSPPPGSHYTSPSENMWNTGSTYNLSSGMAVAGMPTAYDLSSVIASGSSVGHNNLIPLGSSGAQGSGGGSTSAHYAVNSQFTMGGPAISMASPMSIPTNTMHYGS
UniProt Q99873, 1-371 with tags or gaps: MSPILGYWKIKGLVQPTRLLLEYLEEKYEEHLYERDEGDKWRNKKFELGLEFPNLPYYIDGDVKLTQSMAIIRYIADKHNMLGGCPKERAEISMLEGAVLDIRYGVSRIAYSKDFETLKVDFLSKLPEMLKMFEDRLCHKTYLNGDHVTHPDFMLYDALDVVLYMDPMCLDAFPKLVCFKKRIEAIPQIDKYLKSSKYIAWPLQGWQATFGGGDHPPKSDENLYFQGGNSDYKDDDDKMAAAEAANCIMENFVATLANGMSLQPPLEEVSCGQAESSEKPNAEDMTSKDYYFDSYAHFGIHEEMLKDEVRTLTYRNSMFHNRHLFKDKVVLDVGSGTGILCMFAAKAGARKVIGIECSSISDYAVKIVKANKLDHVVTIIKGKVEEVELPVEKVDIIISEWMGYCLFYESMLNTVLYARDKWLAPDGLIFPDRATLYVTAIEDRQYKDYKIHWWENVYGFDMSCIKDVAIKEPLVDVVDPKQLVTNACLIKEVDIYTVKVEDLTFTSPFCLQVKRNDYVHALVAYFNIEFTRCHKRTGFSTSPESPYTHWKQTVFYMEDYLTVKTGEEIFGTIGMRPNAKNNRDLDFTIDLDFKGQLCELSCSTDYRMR
UniProt Q9BQA1, whole entry partner: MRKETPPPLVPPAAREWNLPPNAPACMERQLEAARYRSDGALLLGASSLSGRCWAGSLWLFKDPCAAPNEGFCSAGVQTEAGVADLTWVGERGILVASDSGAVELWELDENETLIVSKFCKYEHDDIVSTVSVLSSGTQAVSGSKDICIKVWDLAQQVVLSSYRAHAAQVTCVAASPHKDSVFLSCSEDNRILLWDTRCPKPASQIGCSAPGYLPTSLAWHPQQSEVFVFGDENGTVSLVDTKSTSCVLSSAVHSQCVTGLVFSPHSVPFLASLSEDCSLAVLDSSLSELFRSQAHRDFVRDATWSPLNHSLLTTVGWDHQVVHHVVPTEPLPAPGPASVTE

What was measured:
PRMT5 = PRMT5 (Homo sapiens, UniProt O14744); experiment: PRMT5 IC50 (Table 2; no method described); type: biochemical; conditions: read-out: PRMT5_ IC50
Human CARM1 (PRMT4) = Human CARM1 (PRMT4) (Homo sapiens, UniProt Q86X55); experiment: CARM1 biochemical assay (3H-SAM Flashplate, peptide substrate); conditions: read-out: CARM1_ IC50
Source text: (§1) S-adenosylmethionine (SAM), S-adenosylhomocysteine (SAH), bicine, Tween20, dimethylsulfoxide (DMSO), bovine skin gelatin (BSG), sodium butyrate and Tris(2-carboxyethyl)phosphine hydrochloride solution (TCEP) were purchased from Sigma-Aldrich at the highest level of purity possible. ^3H-SAM was purchase from American Radiolabeled Chemicals with a specific activity of 80 Ci/mmol. 384-well streptavidin Flashplates were purchased from PerkinElmer.
(§2) Peptide representative of human histone H3 residues 16-30 was synthesized with an N-terminal linker-affinity tag motif and a C-terminal amide cap by 21st Century Biochemicals. The peptide was purified by high-performance liquid chromatography (HPLC) to greater than 95% purity and confirmed by liquid chromatography mass spectrometry (LC-MS). The sequence was Biot-Ahx-PRKQLATKAARKSAP-amide and contained a monomethylated arginine at position 26 (SEQ ID NO.: 14).
Human CARM1 (PRMT4) (NM_199141.1) transcript clone was amplified from an HEK 293 cDNA library, incorporating a flanking 5′ sequence encoding a FLAG tag (MDYKDDDDK) (SEQ ID NO.: 6) fused directly to Ala 2 of CARM1 and 3′ sequence encoding a hexa His sequence (EGHHHHHH) (SEQ ID NO.: 15) fused directly to Ser 608. The gene sequence encoding isoform1 containing a deletion of amino acids 539-561 was amplified subsequently and subcloned into pFastBacMam (Viva Biotech). […]

human PRMT1 = human PRMT1 (Homo sapiens, UniProt Q99873); experiment: PRMT1 biochemical assay (3H-SAM Flashplate, peptide substrate); conditions: read-out: PRMT1_ IC50
Source text: as §1, with “(BSG),” for “(BSG), sodium butyrate”
as §2, with “H4” for “H3”, “36-50” for “16-30”, “Biot-Ahx-RLARRGGVKRISGLI-amide” for “Biot-Ahx-PRKQLATKAARKSAP-amide and contained a monomethylated arginine at position 26”, “1).” for “14).”
Full-length human PRMT1 isoform 1 (NM_001536.5) transcript clone was amplified from an HEK 293 cDNA library, incorporating flanking 5′ sequence encoding a FLAG tag (DYKDDDDK) (SEQ ID NO.: 2) fused directly to Met 1 of PRMT1. The amplified gene was subcloned into pFastBacI (Life Technologies) modified to encode an N-terminal GST tag and a TEV cleavage sequence ([…] […] […] […] QGGNS)(SEQ ID NO.: 3) fused to Asp of the Flag tag of PRMT1.
Recombinant baculovirus were generated according to Bac-to-Bac kit instructions (Life Technologies). […]

Compound `Cc1cc(C)c(CNC(=O)c2ccc(-c3ccc(CNCCN)cc3)[nH]2)c(=O)[nH]1` has an IC50 (PRMT5) of 399 nM, an IC50 (Human CARM1 (PRMT4)) of 9950 nM and an IC50 (human PRMT1) of 128 nM.
